Drawing on patent US20230048888A1, “USE OF TRIAZOLOTRIAZINE DERIVATIVE IN TREATMENT OF DISEASES” (ZHEJIANG VIMGREEN PHARMACEUTICALS, LTD., priority 2019, published 2023), this text covers IC50 for one molecule.

One may read the IC50 as the concentration needed to halve the response being measured.

One test addresses T1, human ADORA2B (Homo sapiens, UniProt P29275).
T1 construct: host or cells: HEK293
T1 sequence (P29275 1-332): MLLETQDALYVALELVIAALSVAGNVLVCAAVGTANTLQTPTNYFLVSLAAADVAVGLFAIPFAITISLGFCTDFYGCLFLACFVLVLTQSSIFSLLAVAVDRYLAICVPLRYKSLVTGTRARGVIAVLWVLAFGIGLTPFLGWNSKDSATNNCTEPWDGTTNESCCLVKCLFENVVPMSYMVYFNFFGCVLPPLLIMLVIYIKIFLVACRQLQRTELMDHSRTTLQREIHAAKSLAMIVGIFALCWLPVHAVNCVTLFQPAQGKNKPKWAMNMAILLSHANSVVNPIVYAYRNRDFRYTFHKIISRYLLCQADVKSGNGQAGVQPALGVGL
Description: Calcium flow test (FLIPR), ADORA2B stably transfected HEK293. The format is cell-based.

Test [1] concerns the target T2, Human adenosine ADORA2B receptor membrane protein (Homo sapiens, UniProt P29275).
T2 construct: purchased PerkinElmer ES-013-M400UA
T2 sequence (P29275 1-332): T1 sequence (P29275 1-332)
The test is described as follows: Radioisotope ligand competitive binding, ADORA2B ([3H] DPCPX). The note with it: ADORA2B (IC50, nM, n = 3), binding test.

On to `Nc1nc2ccc(Cl)cc2c2nc(-c3ccco3)nn12` [CGS-15943, reference compound], for which the IC50 came out at 7.35 ± 2.12 nM on human ADORA2B, 4.71 ± 0.9 nM in test [1] (Table 10 (IC50)) and 4.24 nM in test [1] (Table 11).
